Among the data in PubChem BioAssay AID1032 (The Scripps Research Institute Molecular Screening Center, 2008) are activation values, retold here.

By UniProt entry, the sequences of proteins in these tests, tags left out. Residues count along the entry.
UniProt P37231, 232-505 limits assumed: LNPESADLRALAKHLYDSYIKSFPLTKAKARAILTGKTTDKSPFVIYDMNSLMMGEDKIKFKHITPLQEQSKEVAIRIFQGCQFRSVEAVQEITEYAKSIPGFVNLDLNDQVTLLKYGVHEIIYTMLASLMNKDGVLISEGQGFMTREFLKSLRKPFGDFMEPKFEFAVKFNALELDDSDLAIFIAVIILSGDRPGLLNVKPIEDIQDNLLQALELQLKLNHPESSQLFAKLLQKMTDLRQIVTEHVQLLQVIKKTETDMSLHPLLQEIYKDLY
UniProt Q15596, whole entry partner: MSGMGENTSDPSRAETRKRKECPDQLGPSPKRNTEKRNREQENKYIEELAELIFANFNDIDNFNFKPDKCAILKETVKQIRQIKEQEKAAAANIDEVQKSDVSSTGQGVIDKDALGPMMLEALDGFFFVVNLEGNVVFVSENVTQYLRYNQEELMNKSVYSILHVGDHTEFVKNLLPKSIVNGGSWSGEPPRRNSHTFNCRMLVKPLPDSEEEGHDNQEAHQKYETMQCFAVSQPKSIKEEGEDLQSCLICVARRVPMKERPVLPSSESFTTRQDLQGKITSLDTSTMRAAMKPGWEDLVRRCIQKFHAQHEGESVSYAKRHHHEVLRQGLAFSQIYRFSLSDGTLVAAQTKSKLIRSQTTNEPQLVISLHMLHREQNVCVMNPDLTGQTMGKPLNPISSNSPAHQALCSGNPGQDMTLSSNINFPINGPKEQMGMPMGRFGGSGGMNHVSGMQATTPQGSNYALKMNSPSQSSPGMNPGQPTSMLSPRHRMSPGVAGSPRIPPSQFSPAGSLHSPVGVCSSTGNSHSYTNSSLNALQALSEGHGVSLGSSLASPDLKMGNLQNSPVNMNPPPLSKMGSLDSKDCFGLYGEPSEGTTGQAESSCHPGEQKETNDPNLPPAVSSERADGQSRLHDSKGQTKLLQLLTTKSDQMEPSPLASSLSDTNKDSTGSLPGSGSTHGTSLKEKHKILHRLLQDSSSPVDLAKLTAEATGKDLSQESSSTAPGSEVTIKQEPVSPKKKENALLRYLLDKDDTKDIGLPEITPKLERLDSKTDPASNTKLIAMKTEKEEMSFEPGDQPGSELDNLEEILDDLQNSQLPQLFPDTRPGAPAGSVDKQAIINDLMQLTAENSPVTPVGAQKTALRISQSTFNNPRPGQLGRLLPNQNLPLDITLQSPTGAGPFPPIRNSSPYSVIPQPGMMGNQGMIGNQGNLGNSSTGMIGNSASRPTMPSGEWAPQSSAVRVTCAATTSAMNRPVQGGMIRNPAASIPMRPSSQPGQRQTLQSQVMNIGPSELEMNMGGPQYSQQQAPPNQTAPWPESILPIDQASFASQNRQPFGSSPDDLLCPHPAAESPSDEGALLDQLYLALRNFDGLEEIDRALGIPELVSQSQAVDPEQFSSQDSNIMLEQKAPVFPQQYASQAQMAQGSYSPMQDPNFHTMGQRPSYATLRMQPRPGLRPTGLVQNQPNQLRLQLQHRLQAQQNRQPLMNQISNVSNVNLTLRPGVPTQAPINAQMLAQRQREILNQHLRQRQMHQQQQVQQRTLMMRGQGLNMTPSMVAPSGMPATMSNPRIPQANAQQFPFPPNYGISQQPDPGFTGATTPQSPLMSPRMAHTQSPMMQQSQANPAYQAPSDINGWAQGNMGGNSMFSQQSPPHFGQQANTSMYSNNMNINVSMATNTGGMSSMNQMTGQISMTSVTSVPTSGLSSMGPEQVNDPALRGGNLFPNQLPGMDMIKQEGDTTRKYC

Structures are written as SMILES. Only a part is listed here, and it is no random draw. Active and inactive are the calls of the source. Rule as the data show it: active = activation above about 22%; inactive = the rest.

The assay deals with Peroxisome proliferator-activated receptor gamma (Homo sapiens) (UniProt P37231). Briefly: agonists of PPARg-SRC-2 recruitment, primary screen, biochemical, HTS (AID 1032).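 Also: 0% = vehicle and 100% = reference agonist.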 The conditions noted are these: PPARgamma LBD-SRC-2 recruitment, at 8 µM, active compounds read high.
For `O=C(NCC1(N2CCOCC2)CCCCC1)c1cc(=O)[nH]c2ccccc12`, the activation is inactive: -0.69%.

As for `CN1CCN(CCOC(=O)C(O)(c2ccccc2)c2ccccc2)CC1`, the activation is inactive: -7.29%.

As to `COc1ccc(NC2CCN(C(=O)OC(C)(C)C)CC2)cc1`, the activation is inactive: -9.34%.

For the compound `N#CC1(Nc2ccccc2)CCN(CCc2ccccc2)CC1`, the activation is inactive: -0.37%.

For the compound `O=C(NCC1(N2CCCCC2)CCCCC1)c1cccc([N+](=O)[O-])c1`, the activation was inactive: -6.76%.

Regarding `CN1CCC(Nc2cccc(F)c2)CC1`, the activation was inactive: -2.47%.

Turning to `CC(C)c1ccc(NC2CCN(C(=O)OC(C)(C)C)CC2)cc1`, the activation was inactive: -11.3%.

`COc1ccc(CN(CCCl)CCCl)cc1Cl`: the activation was inactive: -6.66%.

For the compound `CN(C)c1cccc(C(=O)NCC2(N3CCCCC3)CCCCC2)c1`, the activation is inactive: -5.05%.

Regarding `O=C(OC1CN2CCC1CC2)C1c2ccccc2Oc2ccccc21` (stereo not given), the activation was inactive: 1.57%.

As to `CCOC(=O)N1CCC(Nc2ccc(OC)cc2)CC1`, the activation was inactive: 15.3%.

In the case of `O=C(NCC1(N2CCOCC2)CCCCC1)c1cc2ccccc2o1`, the activation is inactive: -6.96%.

Regarding `COc1ccc(C(=O)NCC2(N3CCCCC3)CCCCC2)c(OC)c1OC`, the activation is inactive: -3.05%.

Take `COc1ccc(NC2CCN(CCc3ccccc3)CC2)c(OC)c1`: the activation is inactive: 5.92%.

`CN(C)c1ccc(C(=O)NCC2(N3CCCCC3)CCCCC2)cc1`: the activation is inactive: 5.09%.

Regarding `CCN1CCC(Nc2cccc(F)c2)CC1`, the activation is inactive: 11.5%.

Consider `COc1cc(OC)cc(C(=O)NCC2(N3CCOCC3)CCCCC2)c1`, for which the activation is inactive: 3.8%.

With `CCC(CO)(C(=O)OC1CN2CCC1CC2)c1ccccc1` (stereo not given), the activation is inactive: -2.61%.

In the case of `CC(C)(C)OC(=O)N1CCC(Nc2ccccc2)CC1`, the activation is inactive: 3.44%.

Regarding `CCOc1ncccc1C(=O)NCC1(N2CCOCC2)CCCCC1`, the activation is inactive: -0.96%.

As for `O=C(OC1CN2CCC1CC2)C1c2ccccc2C=Cc2ccccc21` (stereo not given), the activation was inactive: -1.92%.

With `N/C(=N\O)c1c(N)no[n+]1[O-]`, the activation was inactive: 5.51%.

Turning to `COc1ccc(C(=O)NCC2(N3CCOCC3)CCCCC2)cc1OC`, the activation was inactive: -0.71%.

Consider `c1ccc(CN2CCC(Nc3ccccc3)CC2)cc1`, for which the activation is inactive: 0.44%.

Turning to `N#Cc1ccc(C(=O)NCC2(N3CCCCC3)CCCCC2)cc1`, the activation is inactive: 0.18%.
